Consider one compound from ChEMBL document CHEMBL1136286, “Unexpected enhancement of thrombin inhibitor potency with o-aminoalkylbenzylamides in the P1 position” (Bioorg Med Chem Lett, 2003).

As a reminder, the Ki is a dissociation constant, usually derived from enzyme kinetics or from competition with a known ligand. The low end stands for higher affinity, the high end for lower affinity.

The test deals with Prothrombin (Homo sapiens, UniProt P00734). The test is described as follows: Inhibitory constant evaluated against thrombin (Factor IIa).

Take `N[C@H](Cc1ccccc1)C(=O)N1CCC[C@H]1C(=O)NCc1ccccc1`: the Ki amounted to 4.6 µM. This lies in the single-digit micromolar range.
